Experimental findings from patent publication US10087225B2, “Formulation of MK2 inhibitor peptides” (MOERAE MATRIX, INC., priority 2015, dated 2018) are described below.

Chains of the proteins cited; added tags and fusions are not shown. Lines headed by an entry give the natural chain unless they say otherwise; changes in a name come on top.
UniProt P50750, whole entry: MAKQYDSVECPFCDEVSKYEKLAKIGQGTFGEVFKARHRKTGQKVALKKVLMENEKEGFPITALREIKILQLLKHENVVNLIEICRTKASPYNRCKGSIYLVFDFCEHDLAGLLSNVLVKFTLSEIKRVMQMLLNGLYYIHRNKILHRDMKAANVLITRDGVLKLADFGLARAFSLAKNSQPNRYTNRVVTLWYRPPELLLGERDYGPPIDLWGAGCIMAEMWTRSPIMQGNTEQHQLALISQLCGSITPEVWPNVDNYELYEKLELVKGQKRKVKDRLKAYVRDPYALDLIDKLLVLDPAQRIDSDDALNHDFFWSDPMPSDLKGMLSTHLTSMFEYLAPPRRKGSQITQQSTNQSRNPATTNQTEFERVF
UniProt P00519, whole entry: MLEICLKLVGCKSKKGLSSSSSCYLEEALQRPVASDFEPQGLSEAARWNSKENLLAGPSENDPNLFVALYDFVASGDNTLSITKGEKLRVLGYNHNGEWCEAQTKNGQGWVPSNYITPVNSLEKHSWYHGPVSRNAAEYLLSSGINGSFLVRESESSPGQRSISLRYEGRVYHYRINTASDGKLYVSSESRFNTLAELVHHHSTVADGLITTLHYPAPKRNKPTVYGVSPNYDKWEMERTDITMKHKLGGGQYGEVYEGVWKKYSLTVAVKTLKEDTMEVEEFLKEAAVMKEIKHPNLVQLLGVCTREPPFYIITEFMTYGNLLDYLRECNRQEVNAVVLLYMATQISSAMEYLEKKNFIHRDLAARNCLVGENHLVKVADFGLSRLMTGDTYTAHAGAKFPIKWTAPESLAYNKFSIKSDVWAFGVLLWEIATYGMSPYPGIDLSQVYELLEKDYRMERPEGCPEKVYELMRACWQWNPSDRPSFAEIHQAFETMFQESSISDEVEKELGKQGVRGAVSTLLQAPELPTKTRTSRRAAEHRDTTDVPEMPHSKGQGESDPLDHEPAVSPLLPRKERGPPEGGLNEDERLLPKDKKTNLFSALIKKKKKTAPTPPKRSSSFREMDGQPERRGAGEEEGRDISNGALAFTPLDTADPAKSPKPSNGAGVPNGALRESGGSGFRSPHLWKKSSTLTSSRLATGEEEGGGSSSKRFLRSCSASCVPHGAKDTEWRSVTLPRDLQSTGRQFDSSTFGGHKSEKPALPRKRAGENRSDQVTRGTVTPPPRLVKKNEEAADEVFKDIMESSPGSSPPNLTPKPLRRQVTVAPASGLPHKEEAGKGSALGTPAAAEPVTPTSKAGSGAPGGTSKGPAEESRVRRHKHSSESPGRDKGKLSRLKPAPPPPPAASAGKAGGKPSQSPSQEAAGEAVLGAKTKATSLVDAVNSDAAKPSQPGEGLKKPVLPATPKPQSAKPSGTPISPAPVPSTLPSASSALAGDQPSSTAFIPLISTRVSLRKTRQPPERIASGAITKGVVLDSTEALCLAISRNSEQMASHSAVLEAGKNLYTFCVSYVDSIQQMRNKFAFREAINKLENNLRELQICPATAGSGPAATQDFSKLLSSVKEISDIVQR
UniProt Q86Y07: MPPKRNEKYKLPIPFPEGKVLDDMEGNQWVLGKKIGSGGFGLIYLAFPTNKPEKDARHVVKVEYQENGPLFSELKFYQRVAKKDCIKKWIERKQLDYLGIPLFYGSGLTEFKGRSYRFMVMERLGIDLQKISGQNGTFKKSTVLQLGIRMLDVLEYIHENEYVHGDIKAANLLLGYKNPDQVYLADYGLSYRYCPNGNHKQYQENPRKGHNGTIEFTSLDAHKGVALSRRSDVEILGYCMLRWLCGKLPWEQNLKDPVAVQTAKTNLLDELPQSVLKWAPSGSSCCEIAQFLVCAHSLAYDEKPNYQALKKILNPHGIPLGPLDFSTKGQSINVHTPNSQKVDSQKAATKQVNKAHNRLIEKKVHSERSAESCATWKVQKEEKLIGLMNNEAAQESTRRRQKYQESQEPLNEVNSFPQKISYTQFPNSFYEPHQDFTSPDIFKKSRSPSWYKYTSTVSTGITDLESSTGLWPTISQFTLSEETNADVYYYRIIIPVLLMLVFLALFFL

Some targets named below: CDK9/cyclin T1(h) (Homo sapiens, UniProt P50750); MEK1(h) (Homo sapiens, UniProt Q02750); Ab1(h) (Homo sapiens, UniProt P00519); VRK2(h) (Homo sapiens, UniProt Q86Y07).
What all share (assay): Kinase Profiling Assay
Format in all cases: biochemical
Conditions in all cases: 100 μM

For a further experiment, the target named is T1, DDR2(h) (Homo sapiens, UniProt Q16832).
T1 sequence (Q16832 22-855): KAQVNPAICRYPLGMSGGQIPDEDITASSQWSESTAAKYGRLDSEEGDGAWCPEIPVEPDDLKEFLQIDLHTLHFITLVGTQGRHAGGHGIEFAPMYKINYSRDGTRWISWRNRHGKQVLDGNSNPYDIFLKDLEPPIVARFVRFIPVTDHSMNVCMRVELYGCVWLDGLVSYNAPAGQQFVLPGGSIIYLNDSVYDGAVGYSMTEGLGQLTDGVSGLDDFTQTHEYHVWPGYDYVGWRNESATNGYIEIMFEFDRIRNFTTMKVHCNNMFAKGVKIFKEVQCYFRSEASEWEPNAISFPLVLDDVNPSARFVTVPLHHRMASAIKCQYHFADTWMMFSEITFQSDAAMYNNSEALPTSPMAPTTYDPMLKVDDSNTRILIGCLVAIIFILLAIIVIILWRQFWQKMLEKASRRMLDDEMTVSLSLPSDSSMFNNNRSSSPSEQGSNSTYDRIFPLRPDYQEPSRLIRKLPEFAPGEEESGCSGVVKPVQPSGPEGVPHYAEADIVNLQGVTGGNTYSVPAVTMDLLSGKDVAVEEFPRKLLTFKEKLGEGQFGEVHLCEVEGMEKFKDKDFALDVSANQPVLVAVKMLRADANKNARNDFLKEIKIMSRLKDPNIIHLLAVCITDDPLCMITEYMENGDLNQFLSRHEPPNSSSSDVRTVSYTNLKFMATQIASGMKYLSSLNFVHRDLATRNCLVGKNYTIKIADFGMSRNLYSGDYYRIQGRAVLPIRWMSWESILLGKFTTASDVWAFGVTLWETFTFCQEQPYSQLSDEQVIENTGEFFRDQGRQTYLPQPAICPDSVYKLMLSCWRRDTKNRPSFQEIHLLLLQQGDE

A further experiment has as its target T2, TAO1(h) (Homo sapiens, UniProt Q7L7X3).
T2 sequence (Q7L7X3 1-1001): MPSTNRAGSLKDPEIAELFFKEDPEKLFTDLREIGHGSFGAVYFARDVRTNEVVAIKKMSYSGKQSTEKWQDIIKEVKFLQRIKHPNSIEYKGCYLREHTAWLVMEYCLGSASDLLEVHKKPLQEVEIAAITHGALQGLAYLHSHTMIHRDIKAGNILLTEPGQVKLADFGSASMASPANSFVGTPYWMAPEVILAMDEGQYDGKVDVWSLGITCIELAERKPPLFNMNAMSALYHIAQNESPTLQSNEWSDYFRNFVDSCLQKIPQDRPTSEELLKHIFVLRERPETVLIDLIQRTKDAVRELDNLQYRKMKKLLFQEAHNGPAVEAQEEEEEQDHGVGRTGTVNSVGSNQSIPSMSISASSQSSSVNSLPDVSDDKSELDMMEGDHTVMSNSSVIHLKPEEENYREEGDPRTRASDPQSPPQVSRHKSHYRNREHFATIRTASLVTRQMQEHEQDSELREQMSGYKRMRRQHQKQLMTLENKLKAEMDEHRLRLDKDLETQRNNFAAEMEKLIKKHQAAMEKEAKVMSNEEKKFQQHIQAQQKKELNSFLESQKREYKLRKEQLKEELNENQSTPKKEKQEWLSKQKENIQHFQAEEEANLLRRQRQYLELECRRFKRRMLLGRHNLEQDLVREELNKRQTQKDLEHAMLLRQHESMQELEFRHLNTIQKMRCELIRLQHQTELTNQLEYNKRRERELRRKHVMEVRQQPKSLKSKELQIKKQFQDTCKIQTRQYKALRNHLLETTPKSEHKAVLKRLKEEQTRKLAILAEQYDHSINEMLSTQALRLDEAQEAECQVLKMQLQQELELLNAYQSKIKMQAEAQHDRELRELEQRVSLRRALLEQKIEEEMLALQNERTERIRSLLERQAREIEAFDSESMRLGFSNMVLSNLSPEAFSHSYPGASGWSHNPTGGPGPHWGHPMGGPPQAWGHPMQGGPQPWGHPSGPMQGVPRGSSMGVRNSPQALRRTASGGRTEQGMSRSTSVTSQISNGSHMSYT

The next experiment concerns the target T3, TAO3(h) (Homo sapiens, UniProt Q9H2K8).
T3 sequence (Q9H2K8 1-898): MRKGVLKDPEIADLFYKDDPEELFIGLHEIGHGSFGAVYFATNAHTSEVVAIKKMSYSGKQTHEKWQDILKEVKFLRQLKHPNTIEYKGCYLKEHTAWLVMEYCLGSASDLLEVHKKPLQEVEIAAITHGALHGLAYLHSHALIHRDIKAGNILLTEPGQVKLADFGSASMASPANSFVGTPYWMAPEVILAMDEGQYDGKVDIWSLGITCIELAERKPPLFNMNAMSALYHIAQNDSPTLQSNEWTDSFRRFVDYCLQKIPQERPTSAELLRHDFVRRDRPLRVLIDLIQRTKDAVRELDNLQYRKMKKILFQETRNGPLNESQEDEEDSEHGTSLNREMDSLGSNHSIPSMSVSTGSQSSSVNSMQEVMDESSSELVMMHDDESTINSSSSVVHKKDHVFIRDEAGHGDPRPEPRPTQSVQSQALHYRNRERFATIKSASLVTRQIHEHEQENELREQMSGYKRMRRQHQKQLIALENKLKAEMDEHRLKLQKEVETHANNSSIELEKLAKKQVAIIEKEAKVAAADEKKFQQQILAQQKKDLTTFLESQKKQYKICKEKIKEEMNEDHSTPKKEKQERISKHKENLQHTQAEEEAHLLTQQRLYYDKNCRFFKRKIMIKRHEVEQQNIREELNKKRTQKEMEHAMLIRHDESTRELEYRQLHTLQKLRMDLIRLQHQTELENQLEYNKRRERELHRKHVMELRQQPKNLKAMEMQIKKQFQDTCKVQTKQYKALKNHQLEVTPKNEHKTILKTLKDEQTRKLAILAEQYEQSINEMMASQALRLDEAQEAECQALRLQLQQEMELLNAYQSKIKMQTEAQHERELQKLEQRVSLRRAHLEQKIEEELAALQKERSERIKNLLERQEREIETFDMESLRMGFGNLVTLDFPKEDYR

Take “YARAAARQARAKALNRQLGVA (Mammalian) [MMI-0200]”: the “% activity” value in the experiment with CDK9/cyclin T1(h) is given as 103%; in the experiment with MEK1(h), 116%; with Ab1(h) it was 107%; with DDR2(h) it was 104%; with TAO1(h), 105%; in the experiment with TAO3(h), 102%. The “% activity” value in the experiment with VRK2(h) is reported as 109%.
